Data reported in patent publication US20220218680A1, “TREATMENTS OF HEREDITARY ANGIOEDEMA” (KALVISTA PHARMACEUTICALS LIMITED, priority 2019, published 2022).

Amino acid sequences for entries named in this document (tags omitted). Residues count along the entry.
UniProt P03952, 20-390 partner limits assumed: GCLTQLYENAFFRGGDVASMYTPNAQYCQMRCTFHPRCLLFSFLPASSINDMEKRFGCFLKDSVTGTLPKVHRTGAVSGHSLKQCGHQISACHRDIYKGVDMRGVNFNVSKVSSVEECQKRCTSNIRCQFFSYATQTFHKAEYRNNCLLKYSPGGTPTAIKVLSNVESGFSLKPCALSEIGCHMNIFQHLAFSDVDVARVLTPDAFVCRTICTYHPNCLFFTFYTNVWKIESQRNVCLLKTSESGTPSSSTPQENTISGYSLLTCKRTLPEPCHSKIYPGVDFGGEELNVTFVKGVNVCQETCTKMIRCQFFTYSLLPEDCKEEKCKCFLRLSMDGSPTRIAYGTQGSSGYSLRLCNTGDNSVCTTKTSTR
UniProt P03952, 391-638 limits assumed: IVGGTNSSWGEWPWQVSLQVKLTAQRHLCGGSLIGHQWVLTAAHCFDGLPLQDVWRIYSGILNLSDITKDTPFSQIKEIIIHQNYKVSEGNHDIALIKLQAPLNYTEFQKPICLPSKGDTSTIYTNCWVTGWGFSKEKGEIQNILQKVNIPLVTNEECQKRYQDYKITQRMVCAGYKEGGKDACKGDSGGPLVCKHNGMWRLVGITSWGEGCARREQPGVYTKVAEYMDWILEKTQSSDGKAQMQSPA

Target: T1, Plasma Kallikrein (Homo sapiens, UniProt P03952)
T1 construct: PD measurements were determined in dextran sulfate (DXS) stimulated undiluted plasma using a fluorogenic enzyme assay; from tissue; host or cells: undiluted plasma of healthy male volunteers after oral dosing, stimulated ex vivo with dextran sulfate
Experiment: Phase 1 SAD / food effect: ex vivo PKa catalytic activity in DXS-stimulated undiluted plasma
Procedure: PD measurements were determined in dextran sulfate (DXS) stimulated undiluted plasma using a fluorogenic enzyme assay and capillary based HK cleavage immunoassay.
The time until appearance of detectable amidolytic enzyme activity in DXS-stimulated plasma (lag time) was calculated from the catalytic activity assay. The detection sensitivity of the rate of catalytic activity in plasma based on using a Spark (Tecan) fluorimeter is a fluorescence increase to reach 1ΔF unit/sec.

COCc1nn(Cc2ccc(Cn3ccccc3=O)cc2)cc1C(=O)NCc1nccc(OC)c1F [compound of Formula A, N-[(3-fluoro-4-methoxypyridin-2-yl)methyl]-3-(methoxymethyl)-1-({4-[(2-oxopyridin-1-yl)methyl]phenyl}methyl)pyrazole-4-carboxamide]
inhibition of plasma kallikrein catalytic activity (160 mg, 300 mg and 600 mg, for a period of time): above 90%
average inhibition of plasma kallikrein catalytic activity (cohort 7 (300 mg), between 20 min and 4 hr post-dose): > 90%
inhibition of plasma kallikrein catalytic activity (cohort 8 (600 mg), between 30 min and 6 hr post-dose): > 90%
